{"sequences": {"note": "Amino acid sequences for entries named in this document (tags omitted). A change or cut given only in a name is not applied to a line headed by its entry.", "UniProt P10275": "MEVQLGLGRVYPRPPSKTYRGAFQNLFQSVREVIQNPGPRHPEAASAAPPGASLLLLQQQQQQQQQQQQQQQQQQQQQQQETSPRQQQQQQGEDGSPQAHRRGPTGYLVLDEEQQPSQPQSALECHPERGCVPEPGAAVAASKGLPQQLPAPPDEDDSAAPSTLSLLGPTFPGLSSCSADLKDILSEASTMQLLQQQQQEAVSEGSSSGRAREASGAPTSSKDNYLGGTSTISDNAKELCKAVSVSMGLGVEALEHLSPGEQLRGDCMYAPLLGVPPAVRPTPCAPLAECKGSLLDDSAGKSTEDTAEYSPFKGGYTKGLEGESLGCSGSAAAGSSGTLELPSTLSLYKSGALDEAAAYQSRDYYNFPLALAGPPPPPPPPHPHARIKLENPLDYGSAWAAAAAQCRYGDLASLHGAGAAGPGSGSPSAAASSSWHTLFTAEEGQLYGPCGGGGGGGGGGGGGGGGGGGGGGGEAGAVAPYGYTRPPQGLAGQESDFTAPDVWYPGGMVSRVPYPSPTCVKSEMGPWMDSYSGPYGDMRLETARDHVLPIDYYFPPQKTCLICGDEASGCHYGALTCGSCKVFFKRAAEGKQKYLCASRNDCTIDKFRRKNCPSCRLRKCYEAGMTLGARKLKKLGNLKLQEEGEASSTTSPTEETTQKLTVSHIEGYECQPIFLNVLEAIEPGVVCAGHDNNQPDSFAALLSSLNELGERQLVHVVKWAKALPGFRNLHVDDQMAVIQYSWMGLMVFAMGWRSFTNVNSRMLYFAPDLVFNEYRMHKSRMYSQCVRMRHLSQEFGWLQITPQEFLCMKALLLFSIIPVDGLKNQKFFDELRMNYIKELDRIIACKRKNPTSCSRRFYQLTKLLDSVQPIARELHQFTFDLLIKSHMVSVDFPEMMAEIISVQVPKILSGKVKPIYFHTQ"}, "source": "patent US7649001B2", "about": "“Fused benzene derivative and use” (Takeda Pharmaceutical Company Limited, priority 2002, dated 2010)"}
{"biological_target": "AR (wild type) (Homo sapiens, UniProt P10275)", "conditions": "100 nM compound, 24 hours; luciferase activity with 1 μM 5α-dihydrotestosterone = 100", "units": {"Induction rate (%) at 100 nM Wild type": "%"}}
{"smiles": "C[C@H]1[C@@H](CO)CCN1c1ccc(C#N)c2sccc12", "Induction rate (%) at 100 nM Wild type": 104}
{"smiles": "N#Cc1ccc(N2CCC(F)C2)c2ccsc12", "note": "(centres unmarked) [Compound 100, 4-(3-fluoro-1-pyrrolidinyl)-1-benzothiophene-7-carbonitrile]", "Induction rate (%) at 100 nM Wild type": 101}
{"smiles": "C[C@H]1C[C@@H](O)CN1c1ccc(C#N)c2sccc12", "note": "[Compound 109, 4-[(2S,4R)-4-hydroxy-2-methyl-1-pyrrolidinyl]-1-benzothiophene-7-carbonitrile]", "Induction rate (%) at 100 nM Wild type": 85}
{"smiles": "C[C@H]1[C@H](O)CCN1c1ccc(C#N)c2sccc12", "note": "[Compound 115, 4-[(2S,3R)-3-hydroxy-2-methyl-1-pyrrolidinyl]-1-benzothiophene-7-carbonitrile]", "Induction rate (%) at 100 nM Wild type": 110}
{"smiles": "C[C@H]1[C@@H](O)CCN1c1ccc(C#N)c2sccc12", "note": "[Compound 118, 4-[(2S,3S)-3-hydroxy-2-methyl-1-pyrrolidinyl]-1-benzothiophene-7-carbonitrile]", "Induction rate (%) at 100 nM Wild type": 99}
